Measured values taken from ChEMBL document CHEMBL1132606, “Use of a pharmacophore model for the design of EGFR tyrosine kinase inhibitors: isoflavones and 3-phenyl-4(1H)-quinolones” (J Med Chem, 1999).

The chains behind the UniProt entries cited, without tags or fusion partners. Where a name states a change or a piece, a line headed by the entry shows the natural chain unless it says otherwise.
UniProt P00533, whole entry: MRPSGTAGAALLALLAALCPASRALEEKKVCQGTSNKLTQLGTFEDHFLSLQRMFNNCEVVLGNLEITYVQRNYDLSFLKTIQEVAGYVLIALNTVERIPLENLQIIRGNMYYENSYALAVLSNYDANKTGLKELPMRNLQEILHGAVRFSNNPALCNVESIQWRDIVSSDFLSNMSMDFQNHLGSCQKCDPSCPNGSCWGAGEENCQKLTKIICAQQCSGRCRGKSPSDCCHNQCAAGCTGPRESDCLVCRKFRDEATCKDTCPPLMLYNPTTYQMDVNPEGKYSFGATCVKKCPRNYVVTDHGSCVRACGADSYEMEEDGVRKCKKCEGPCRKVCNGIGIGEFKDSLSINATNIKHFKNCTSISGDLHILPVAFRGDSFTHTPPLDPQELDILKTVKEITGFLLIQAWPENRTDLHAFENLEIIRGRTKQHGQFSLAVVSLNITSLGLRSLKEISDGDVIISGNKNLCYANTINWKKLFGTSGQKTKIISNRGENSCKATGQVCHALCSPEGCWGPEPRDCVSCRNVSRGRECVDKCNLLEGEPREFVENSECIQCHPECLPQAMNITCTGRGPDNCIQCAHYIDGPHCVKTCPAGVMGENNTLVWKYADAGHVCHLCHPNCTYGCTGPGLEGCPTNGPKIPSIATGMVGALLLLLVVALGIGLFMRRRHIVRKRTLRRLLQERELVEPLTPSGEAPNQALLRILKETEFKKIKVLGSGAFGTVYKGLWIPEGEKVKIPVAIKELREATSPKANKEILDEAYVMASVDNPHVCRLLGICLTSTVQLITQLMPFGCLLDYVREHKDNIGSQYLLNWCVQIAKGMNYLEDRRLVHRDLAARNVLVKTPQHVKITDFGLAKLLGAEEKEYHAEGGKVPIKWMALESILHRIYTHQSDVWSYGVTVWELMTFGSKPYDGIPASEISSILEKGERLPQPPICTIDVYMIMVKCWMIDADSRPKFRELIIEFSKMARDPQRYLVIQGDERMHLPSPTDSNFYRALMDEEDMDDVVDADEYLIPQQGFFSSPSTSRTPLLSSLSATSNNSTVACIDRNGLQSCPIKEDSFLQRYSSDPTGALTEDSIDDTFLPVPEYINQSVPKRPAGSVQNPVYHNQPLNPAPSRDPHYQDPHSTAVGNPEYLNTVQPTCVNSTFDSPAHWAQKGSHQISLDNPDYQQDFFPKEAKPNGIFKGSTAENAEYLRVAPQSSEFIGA
UniProt P00519: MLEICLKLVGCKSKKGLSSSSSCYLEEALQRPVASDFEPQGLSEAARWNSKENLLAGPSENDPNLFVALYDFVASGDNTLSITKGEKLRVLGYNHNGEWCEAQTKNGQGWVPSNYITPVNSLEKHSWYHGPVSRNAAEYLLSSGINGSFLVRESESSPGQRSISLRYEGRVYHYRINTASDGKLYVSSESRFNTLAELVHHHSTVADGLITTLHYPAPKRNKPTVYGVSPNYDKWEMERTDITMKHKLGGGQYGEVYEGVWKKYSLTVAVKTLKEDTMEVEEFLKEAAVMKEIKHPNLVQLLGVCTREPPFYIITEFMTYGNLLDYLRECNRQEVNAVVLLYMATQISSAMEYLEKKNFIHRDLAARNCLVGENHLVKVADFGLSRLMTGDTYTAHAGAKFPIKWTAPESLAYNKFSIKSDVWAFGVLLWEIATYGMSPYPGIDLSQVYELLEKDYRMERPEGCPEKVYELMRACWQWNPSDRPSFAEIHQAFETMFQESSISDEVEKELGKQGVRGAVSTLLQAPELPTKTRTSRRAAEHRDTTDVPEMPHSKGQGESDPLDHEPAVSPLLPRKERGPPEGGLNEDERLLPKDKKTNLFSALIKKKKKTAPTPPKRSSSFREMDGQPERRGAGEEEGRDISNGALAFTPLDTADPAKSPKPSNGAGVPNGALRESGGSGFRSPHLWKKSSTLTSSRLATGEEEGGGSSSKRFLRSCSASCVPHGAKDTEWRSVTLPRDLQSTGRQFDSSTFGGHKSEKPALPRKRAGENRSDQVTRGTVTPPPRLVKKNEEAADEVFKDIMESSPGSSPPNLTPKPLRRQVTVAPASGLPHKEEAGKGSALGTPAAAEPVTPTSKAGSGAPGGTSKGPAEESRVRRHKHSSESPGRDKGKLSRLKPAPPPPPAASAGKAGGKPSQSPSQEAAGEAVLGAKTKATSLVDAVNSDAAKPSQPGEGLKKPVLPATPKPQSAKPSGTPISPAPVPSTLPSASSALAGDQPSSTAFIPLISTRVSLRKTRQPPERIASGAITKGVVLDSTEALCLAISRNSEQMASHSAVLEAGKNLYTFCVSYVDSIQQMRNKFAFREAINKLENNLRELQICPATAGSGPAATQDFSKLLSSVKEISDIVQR
UniProt P42684: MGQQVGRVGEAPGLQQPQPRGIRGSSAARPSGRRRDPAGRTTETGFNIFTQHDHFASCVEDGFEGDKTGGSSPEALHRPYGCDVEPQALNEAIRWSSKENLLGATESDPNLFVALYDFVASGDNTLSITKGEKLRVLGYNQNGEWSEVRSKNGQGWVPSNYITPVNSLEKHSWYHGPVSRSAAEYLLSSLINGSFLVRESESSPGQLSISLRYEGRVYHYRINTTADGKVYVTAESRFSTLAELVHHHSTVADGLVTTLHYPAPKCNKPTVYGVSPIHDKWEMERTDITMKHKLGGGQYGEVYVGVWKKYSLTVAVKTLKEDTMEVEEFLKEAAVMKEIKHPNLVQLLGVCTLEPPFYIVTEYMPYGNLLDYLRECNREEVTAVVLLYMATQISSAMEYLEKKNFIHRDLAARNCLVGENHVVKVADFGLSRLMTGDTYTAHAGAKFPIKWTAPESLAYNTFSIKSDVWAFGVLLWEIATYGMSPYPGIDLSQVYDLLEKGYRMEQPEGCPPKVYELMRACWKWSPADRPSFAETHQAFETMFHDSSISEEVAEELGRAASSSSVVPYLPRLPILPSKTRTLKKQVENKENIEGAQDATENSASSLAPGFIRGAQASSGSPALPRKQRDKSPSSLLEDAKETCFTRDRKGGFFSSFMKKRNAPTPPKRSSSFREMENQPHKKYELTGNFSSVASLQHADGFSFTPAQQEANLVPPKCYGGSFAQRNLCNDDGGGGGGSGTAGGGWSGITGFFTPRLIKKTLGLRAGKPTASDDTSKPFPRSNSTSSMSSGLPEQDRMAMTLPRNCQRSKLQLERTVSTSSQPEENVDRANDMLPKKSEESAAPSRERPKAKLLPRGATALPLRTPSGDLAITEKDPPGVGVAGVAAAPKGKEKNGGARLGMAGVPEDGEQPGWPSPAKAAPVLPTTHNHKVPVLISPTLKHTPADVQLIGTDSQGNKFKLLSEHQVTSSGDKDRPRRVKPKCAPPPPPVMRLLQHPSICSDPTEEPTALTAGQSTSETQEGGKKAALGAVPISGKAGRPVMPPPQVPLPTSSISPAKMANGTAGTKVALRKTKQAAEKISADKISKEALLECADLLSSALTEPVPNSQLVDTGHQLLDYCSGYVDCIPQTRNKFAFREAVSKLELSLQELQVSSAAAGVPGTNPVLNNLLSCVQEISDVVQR

Experiments:
[1] = target: T1, Epidermal growth factor receptor (Homo sapiens, UniProt P00533); assay: Inhibition of Epidermal growth factor receptor
[2] = target: T1, Epidermal growth factor receptor; assay: Inhibition of Epidermal growth factor receptor-dependent phosphorylation
[3] = target: Tyrosine-protein kinase ABL (Homo sapiens, UniProt P00519+P42684); assay: Inhibition of v-Abl tyrosine kinase; assay type: protein assay

- IC50 [1]: 6 nM
- IC50 [2]: 120 nM
- IC50 [3]: 125 nM
SMILES: COc1cc2ncnc(Nc3cccc(Cl)c3)c2cc1OC [TYRPHOSTIN AG-1478]
